In PMC11597446, “Using the Cocrystal Approach as a Promising Drug Delivery System to Enhance the Dissolution and Bioavailability of Formononetin Using an Imidazole Coformer” (Pharmaceuticals, 2024):

Assay: Powder dissolution experiment in bio-relevant media (FaSSGF, FaSSIF)

With “formononetin-imidazole [FMN-IMD cocrystal]” the “concentration over time after rapid dissolution” value (FaSSGF and FaSSIF, 6 h experiments) was “remained steady” and the “solubility in test media containing PVP K30” value (FaSSGF or FaSSIF with PVP K30 (2.5 mg/mL), n = 1) was “enhanced further”.
